Reference: ChEMBL document CHEMBL1156283, “Discovery and optimization of 2-(4-substituted-pyrrolo[2,3-b]pyridin-3-yl)methylene-4-hydroxybenzofuran-3(2H)-ones as potent and selective ATP-competitive inhibitors of the mammalian target of rapamycin (mTOR)” (Bioorg Med Chem Lett, 2010)

Key:
[1] = target: Serine/threonine-protein kinase mTOR (Homo sapiens, UniProt P42345); assay: Inhibition of mTOR
[2] = target: Rho-associated protein kinase 1 (Homo sapiens, UniProt Q13464); assay: Inhibition of ROCK1
[3] = target: Platelet-derived growth factor receptor alpha (Homo sapiens, UniProt P16234); assay: Inhibition of PDGFRalpha
[4] = target: Proto-oncogene tyrosine-protein kinase Src (Homo sapiens, UniProt P12931); assay: Inhibition of SRC
[5] = target: Vascular endothelial growth factor receptor 2 (Homo sapiens, UniProt P35968); assay: Inhibition of VEGFR2

IC50 [1]	Structure (SMILES)	IC50 [2]	IC50 [3]	IC50 [4]	IC50 [5]
0.033 µM	Cn1cc(/C=C2\Oc3cc(O)cc(O)c3C2=O)c2c(-c3ccccc3)cccc21	–	–	–	–
–	Cn1cc(/C=C2\Oc3cccc(O)c3C2=O)c2c(-c3ccc(C(=O)NCCO)cc3)ccnc21	50 µM	50 µM	50 µM	50 µM
